In BindingDB's records for doi:10.1038/nchembio.2209 (Dana-Farber Cancer Institute, 2016):

Biological target: T1, Bromodomain-containing protein 4 [44-168] (Human, UniProt O60885)
T1 construct: 44-168
Experiment: AlphaScreen BRD Binding Assay
Details: pH 7.5; 25 °C

IC50: 0.158 µM
Structure (SMILES): Cc1sc2c(c1C)C(c1ccc(Cl)cc1)=N[C@@H](CC(=O)NCCOCCNC(=O)C[C@H]1N=C(c3ccc(Cl)cc3)c3c(sc(C)c3C)-n3c(C)nnc31)c1nnc(C)n1-2 [(6S+6S)-PEG1 (4)]
